Screening results from PubChem BioAssay.
This is a sample that favours compounds with a hit; in the whole collection about 1.5% have one here.
FN deposit inh: inhibitors of fibronectin matrix deposition, primary screen, AH1F cells, Alexa488-fibronectin fluorescence, plate reader | 350,000 compounds, 0.086% hits | inhibition, % at 12.6 µM | AH1F fibroblasts, overnight;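 active = mean inhibition across replicates of 30% or more, regardless of how many single replicates reach that level; inconclusive = mean under 30% yet at least half of replicates reach 30%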
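Assay system: AH1F fibroblast monolayer, labelled fibronectin deposition. Amount: 10000 cells per well. Also added: labelled fibronectin 24 nM. Compound: single-point pinned compound. Incubation: cell attachment 1 h, compound and FN exposure overnight. Detection: fluorescence after three HBSS washes, excitation 485 nm, emission 525 nm. Read-out: inhibition of fibronectin deposition signal.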
Cneo AK release: Cryptococcus neoformans cell lysis inducers, primary screen, AK release luminescence, single concentration | 360,000 compounds, 0.2% hits | lysis activity, % at 15 µM | C. neoformans lysis, adenylate kinase release luminescence, 4 h; normalised: neutral wells 0, clomiphene wells 100;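 active = mean lysis activity across replicates of at least 80%, whatever share of replicates individually reach that level; inactive = mean lysis activity below 80%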
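Test system: log-phase Cryptococcus neoformans yeast cells; Quantity: yeast cell density of 5 × 10^6 cells/mL; Buffer or medium: YPD; Doses: single compound concentration per well; Timing: 4 h at 37 °C static, read 1 h later; Measured by: AK luminescence; Read-out basis: lysis from increased AK signal; Control set: Clomiphene as positive control.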
UUG fidelity: modulators of yeast start codon fidelity, primary screen, whole organism, S. cerevisiae, single point, plate reader; activity score, % at 18.7 µM; actives 0.13% (n = 350,000); S. cerevisiae UUG-firefly luciferase reporter, luminescence/redox ratio;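 active = replicate mean at a twofold rise or more, about +100% in these data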;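 also: firefly luciferase made from a UUG start codon reports start codon fidelity; reporter light over untreated wells divided by growth signal over untreated wells; some hits fall short of that in this replicate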
Env fusion inh: inhibitors of HIV-1 Env-driven cell-cell fusion, primary screen, HeLa-JRFL effector, CEM21 target cells, luciferase. 360,000 compounds, 1.1% hits. inhibition, % at 12.3 µM. AID 651610, 2012;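 active = mean replicate inhibition score of at least 50 and every replicate individually at or above 50; inconclusive = only one of the two criteria met; inactive = mean below 50 and not all replicates reaching 50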
PGC1a acetyl inh: inhibitors of PGC1a acetylation signal, primary screen, cell-based, U2OS, AlphaScreen, inhibitor mode. AlphaScreen anti-acetyl-lysine; with virally co-expressed GCN5 acetyltransferase. inhibition, % at 15.6 µM. 350,000 compounds, 0.17% hits. AID 651687, 2012;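 active = every replicate shows inhibition of at least 40%; inconclusive = mean inhibition at least 40% but some replicate below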
miR122 inh: miR-122 Renilla sensor signal increase in Huh7, primary screen, miR-122 inhibitor project, cell-based, single point, plate reader; Huh7 miR-122 Renilla luciferase sensor, 48 h; neutral wells = 0, positive control = 100; activation (reporter increase), % at 12.5 µM; 340,000 compounds, 0.3% hits; AID 602342, 2012;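 active = mean replicate activation score at least 90 and every replicate individually at or above 90; inconclusive = only one of the two criteria met; inactive = neither criterion met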;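 note: higher luciferase means less miR-122 activity so hits act as miR-122 inhibitors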
Numbers stand for hits; - = inactive; ? = inconclusive; . = not tested or not shown; [ ] = remark or other dose.

SMILES	FN deposit inh	Cneo AK release	UUG fidelity	Env fusion inh	PGC1a acetyl inh	miR122 inh
N#CC1=C(N)C(C#N)(C#N)C2(CCC3(CC2)OCCO3)C2CC3(CC=C12)OCCO3 (stereo not given)	-	-	-	-	-	-
O=C(/C=C/c1ccc(Cl)c(Cl)c1)N1CCc2ccccc21	-	.	.	-	.	.
NS(=O)(=O)c1ccc(CCNCC#Cc2ccccc2)cc1	-	-	-	-	-	-
Cc1nc2c(-c3ccc(F)cc3)c(C)nn2c(C)c1CCC(=O)NC(C)CCc1ccco1 (stereo not given)	-	-	-	65	-	-
CC(C)n1c(=S)[nH]c2cc(Cl)ccc21	-	.	.	-	69	.
CCN1/C(=C/c2ccc3cc(C)ccc3[n+]2C)Sc2ccc3sccc3c21	-	-	-	61	-	-
CCN1/C(=C/c2ccc3cc(C)ccc3[n+]2CC)Sc2cc(C)ccc21	-	-	-	-	.	-
Cc1ccnc(NC(=O)CCC(=O)N(CC(=O)NCc2ccc(F)cc2)c2cccc(F)c2)c1	-	-	-	-	.	.
Cc1ccc(-c2n[nH]c(=S)n2/N=C/c2cccn2C)cc1	.	.	.	.	50	-
C[C@H](CO)N1C[C@H](C)[C@@H](CN(C)S(=O)(=O)c2cccs2)Oc2ccc(N(C)C)cc2CC1=O	-	-	-	-	-	-
Nc1ccc(N=Nc2ccc(N)cc2)cc1	-	.	.	-	.	.
CC(C)(CO)CNc1ccn2nccc2n1	-	-	-	-	43	-
Fc1ccc(CNc2ccn3nc(-c4ccccc4)cc3n2)cc1	-	-	-	-	.	.
COc1ccccc1-c1ccc2c(c1)[C@@H]1[C@@H](CCN1C(=O)C1CCC1)[C@H](CO)N2	-	.	.	-	-	.
C/C=C/c1ccc([C@H]2[C@@H](CO)N(C(=O)CC)[C@@H]2CNC(=O)C2CC2)cc1	-	91	-	.	-	-
C/C=C/c1ccc([C@H]2[C@@H](CO)N(C(=O)NCCC)[C@H]2CNC(=O)C2CCC2)cc1	-	.	.	.	.	.
C/C=C/c1ccc([C@@H]2[C@@H](CO)N(C(=O)CC)[C@@H]2CNC(=O)C2CC2)cc1	-	-	-	.	-	-
C/C=C/c1ccc([C@@H]2[C@@H](CNC(=O)c3ccccc3)N(C(C)=O)[C@H]2CO)cc1	-	81	-	.	-	-
COCC(=O)N1[C@H](CO)[C@H](c2ccccc2)[C@@H]1CNC(=O)c1ccccn1	-	-	-	.	-	108[16.7 µM]
C/C=C/c1ccc([C@@H]2[C@@H](CNC(=O)C3CCC3)N(C(=O)NCCC)[C@H]2CO)cc1	-	103	-	.	-	-
COc1ccc(N2CC(C)Cn3c2nc2c3c(=O)n(Cc3ccc(C)cc3)c(=O)n2C)c(OC)c1 (stereo not given)	-	-	-	-	-	-
Nn1c(CSc2nc3ccccc3o2)nnc1CSc1nc2ccccc2o1	-	-	-	-	.	-
O=C(Nc1cc(C(F)(F)F)ccc1N1CCOCC1)c1cccc(S(=O)(=O)N2CCOCC2)c1	-	-	-	?	-	-
O=C(O)c1cc(-c2ccc3c(c2)OCCO3)n[nH]1	-	-	-	-	-	-
CCCCOC(=O)c1[nH]c2c(c1C)C(=O)CC(c1cc(OC)c(OC)c(OC)c1)C2 (stereo not given)	-	-	-	64	.	-
SMILES	FN deposit inh	Cneo AK release	UUG fidelity	Env fusion inh	PGC1a acetyl inh	miR122 inh
COCCOC(=O)c1[nH]c2c(c1C)C(=O)CC(c1cc(OC)c(OC)c(OC)c1)C2 (stereo not given)	-	.	.	-	.	.
COc1ccc2c3c([nH]c2c1)[C@H](CO)N(C(=O)Nc1cccc(F)c1)CC31CCN(S(=O)(=O)c2cccc(C)c2)CC1	-	.	.	.	-	.
COc1cccc(S(=O)(=O)N2CC3(CN(C(=O)Nc4cccc(F)c4)[C@@H](CO)c4[nH]c5cc(OC)ccc5c43)C2)c1	.	.	.	93[16.7 µM]	.	.
COc1ccc2c3c([nH]c2c1)[C@H](CO)N(C(=O)Nc1cccc(F)c1)CC31CN(S(=O)(=O)c2cccc(C)c2)C1	.	.	.	75[16.7 µM]	.	.
COc1ccc2c3c(n(C)c2c1)[C@@H](CO)N(C(=O)Nc1ccc(F)cc1)CC31CCN(Cc2cccc(F)c2)CC1	.	.	.	82[16.7 µM]	.	.
C1CCC2(CC1)OCC1(CO2)COC2(CCCCC2)OC1	.	-	-	-	.	-
O=C(N/N=C/c1ccc([N+](=O)[O-])cc1)c1cc(-c2ccc3c(c2)OCO3)n[nH]1	-	.	.	-	.	.
O=S(=O)(c1ccccc1F)N1CCCCN2[C@H](CO)[C@H](c3ccc(-c4cccnc4)cc3)[C@@H]2C1	.	-	-	.	-	-
Cc1oc(-c2cccc(Cl)c2)nc1CN1CCCC(C(=O)NC(C)c2ccc3c(c2)OCCO3)C1 (stereo not given)	-	-	-	84	-	-
Cc1oc(-c2ccc(Cl)cc2)nc1CN1CCCC(C(=O)NCc2ccccn2)C1 (stereo not given)	-	-	-	-	-	-
Cc1oc(-c2cccc(Cl)c2)nc1CN1CCCC(C(=O)NCc2ccco2)C1 (stereo not given)	-	-	-	-	-	-
Cc1oc(-c2ccc(Cl)cc2)nc1CN1CCCC(C(=O)NCc2cccnc2)C1 (stereo not given)	.	-	-	87	.	-
Cc1c(C)c2c(OCC(=O)NCC(O)c3ccccc3)cc3c(c2oc1=O)CCC(C)(C)O3 (stereo not given)	.	-	-	.	-	-
NC(=O)c1cc([N+](=O)[O-])ccc1NCc1ccc(F)cc1	-	-	-	-	.	.
NC(=O)c1cc([N+](=O)[O-])ccc1NCc1ccc(N)cc1	-	-	-	71	.	-
COc1cc(-c2nn3c(Cc4ccccc4)nnc3s2)cc(OC)c1OC	-	-	-	-	-	-
O=C1[C@H]2[C@@H](C3CC3)N3C(=O)CN(CC4CC4)C(=O)[C@@]3(Cc3ccccc3)[C@H]2C(=O)N1c1ccccc1	-	-	-	70	.	-
CCOC(=O)C1CCCN(C(=O)c2ccc(CS(=O)(=O)c3ccc(C)cc3)o2)C1 (stereo not given)	.	-	-	.	.	.
CC(C)(C)c1[nH]nc2c1C(c1ccccc1OC(=O)N1CCOCC1)C(C#N)=C(N)O2 (stereo not given)	.	.	.	.	-	-
CO[C@@H]1CN(C)C(=O)c2ccc(NS(=O)(=O)c3ccc(Oc4ccccc4)cc3)cc2OC[C@@H](C)NC[C@@H]1C	-	.	.	56[16.7 µM]	-	.
COc1cccc(S(=O)(=O)Nc2ccc3c(c2)OC[C@H](C)NC[C@@H](C)[C@H](OC)CN(C)C3=O)c1	-	87	-	-	-	-
